US10562878B2, “Cycloalkylamines as monoamine reuptake inhibitors” (Sunovion Pharmaceuticals Inc., priority 2006, dated 2020)

Sequences of proteins named here, by UniProt entry; tags and fusion partners are left off.
UniProt P23975, whole entry: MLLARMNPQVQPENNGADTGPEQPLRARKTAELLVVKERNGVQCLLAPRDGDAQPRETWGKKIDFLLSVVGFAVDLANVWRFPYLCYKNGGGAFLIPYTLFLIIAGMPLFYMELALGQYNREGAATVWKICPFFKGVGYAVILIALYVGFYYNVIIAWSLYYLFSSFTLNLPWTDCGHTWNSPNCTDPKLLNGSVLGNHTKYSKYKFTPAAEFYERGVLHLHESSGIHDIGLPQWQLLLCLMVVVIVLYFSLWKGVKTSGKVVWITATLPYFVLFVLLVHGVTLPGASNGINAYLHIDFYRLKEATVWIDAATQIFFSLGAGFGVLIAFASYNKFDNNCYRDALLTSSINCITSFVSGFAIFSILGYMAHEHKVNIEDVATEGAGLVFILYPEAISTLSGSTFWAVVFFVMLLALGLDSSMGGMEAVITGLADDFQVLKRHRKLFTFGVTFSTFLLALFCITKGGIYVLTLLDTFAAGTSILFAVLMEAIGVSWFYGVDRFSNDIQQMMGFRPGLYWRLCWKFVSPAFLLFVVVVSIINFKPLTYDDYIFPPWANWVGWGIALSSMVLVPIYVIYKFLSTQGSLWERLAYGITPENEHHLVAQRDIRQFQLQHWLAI
UniProt P31645, whole entry: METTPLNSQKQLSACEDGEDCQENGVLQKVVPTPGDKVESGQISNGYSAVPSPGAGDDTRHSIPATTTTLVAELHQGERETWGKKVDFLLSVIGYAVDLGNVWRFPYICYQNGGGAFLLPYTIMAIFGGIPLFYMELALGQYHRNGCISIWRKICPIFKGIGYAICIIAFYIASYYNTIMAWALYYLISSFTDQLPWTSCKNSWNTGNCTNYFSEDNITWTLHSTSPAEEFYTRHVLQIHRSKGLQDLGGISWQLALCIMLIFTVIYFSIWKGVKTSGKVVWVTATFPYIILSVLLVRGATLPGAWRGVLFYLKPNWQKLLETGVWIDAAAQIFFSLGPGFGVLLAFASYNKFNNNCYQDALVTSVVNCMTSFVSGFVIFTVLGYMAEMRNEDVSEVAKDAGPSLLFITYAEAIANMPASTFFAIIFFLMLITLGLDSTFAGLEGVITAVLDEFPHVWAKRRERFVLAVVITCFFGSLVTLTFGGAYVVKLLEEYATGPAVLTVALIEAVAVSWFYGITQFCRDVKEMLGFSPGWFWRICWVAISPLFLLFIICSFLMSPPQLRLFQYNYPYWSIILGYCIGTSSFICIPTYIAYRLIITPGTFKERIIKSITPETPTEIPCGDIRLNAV

Tests used:
[1] = molecular target: DA Transporter (DAT) sites in mouse brain (Mus musculus (Mouse), UniProt Q61327); assay: Ex vivo [3H] WIN 35428 binding to DAT sites in mouse brain after oral dosing; conditions: mice, 60 min after treatment
mice = assay: Mouse tail suspension test; format: in vivo
[2] = molecular target: human norepinephrine transporter (Homo sapiens (Human), UniProt P23975); assay: Norepinephrine functional uptake assay, recombinant human transporter in HEK293 or MDCK cells; format: cell-based; conditions: hNET IC50
[3] = molecular target: human serotonin transporter (Homo sapiens (Human), UniProt P31645); assay: Serotonin functional uptake assay, recombinant human transporter in HEK-293 cells; format: cell-based; conditions: hSERT IC50
Rats = assay: Rat forced swim test; format: in vivo

CNCC1(c2ccc(Cl)c(Cl)c2)CCC(C)(O)CC1 (centres unmarked) [Compound 276, 4-(3,4-dichlorophenyl)-1-methyl-4-((methylamino)methyl)cyclohexanol]
DAT Mean Specific Binding ± S.E.M. ([1]; 1 mg/kg PO): 18155 ± 2275 dpm
Mouse Tail Suspension Mean Immobility Time ± S.E.M. (mice; 10 mg/kg PO): 164.1 ± 5.7
Mouse Tail Suspension Mean Immobility Time ± S.E.M. (mice; 30 mg/kg PO): 160.2 ± 7.2

CNC[C@@]1(c2ccc(Cl)c(Cl)c2)CCCC[C@H]1O (single isomer, unassigned) [133 E1, cis-2-(3,4-Dichlorophenyl)-2-((methylamino)methyl)cyclohexanol]
IC50 [2]: 217 nM

CNC[C@@]1(c2ccc(Cl)c(F)c2)CCCC[C@H]1O (single isomer, unassigned) [141 E2, cis-2-(4-Chloro-3-fluorophenyl)-2-((methylamino)methyl)cyclohexanol]
IC50 [3]: 2770 nM

CN(C)CC1(c2ccc(Cl)c(Cl)c2)CCC(C)(O)CC1 (centres unmarked) [Compound 277, 4-(3,4-dichlorophenyl)-4-((dimethylamino)methyl)-1-methylcyclohexanol]
Rat Forced Swim Climbing (Means ± S.E.M.) (Rats; 3 mg/kg PO): 9.0 ± 1.2
Rat Forced Swim Immobility (Means ± S.E.M.) (Rats; 3 mg/kg PO): 50.4 ± 1.1
Rat Forced Swim Swimming (Means ± S.E.M.) (Rats; 3 mg/kg PO): 0.8 ± 0.3
Rat Forced Swim Climbing (Means ± S.E.M.) (Rats; 10 mg/kg PO): 13.8 ± 2.3
Rat Forced Swim Immobility (Means ± S.E.M.) (Rats; 10 mg/kg PO): 42.5 ± 2.6
Rat Forced Swim Swimming (Means ± S.E.M.) (Rats; 10 mg/kg PO): 3.7 ± 0.9
Rat Forced Swim Climbing (Means ± S.E.M.) (Rats; 30 mg/kg PO): 35.6 ± 5.2
Rat Forced Swim Immobility (Means ± S.E.M.) (Rats; 30 mg/kg PO): 14.6 ± 3.5
Rat Forced Swim Swimming (Means ± S.E.M.) (Rats; 30 mg/kg PO): 6.1 ± 1.4
Mouse Tail Suspension Mean Immobility Time ± S.E.M. (mice; 10 mg/kg PO): 164.4 ± 6.8
Mouse Tail Suspension Mean Immobility Time ± S.E.M. (mice; 30 mg/kg PO): 147.1 ± 3.1

CN(C)C[C@]1(c2ccc(Cl)c(Cl)c2)CCCC[C@H]1O (relative stereo) [153 E2, trans-2-(3,4-dichlorophenyl)-2-((dimethylamino)methyl)cyclohexanol]
DAT Mean Specific Binding ± S.E.M. ([1]; 10 mg/kg PO): 22015 ± 1912 dpm

CNC[C@@]1(c2ccc(Cl)c(Cl)c2)CCCC[C@H]1O (single isomer, unassigned) [133 E2, cis-2-(3,4-Dichlorophenyl)-2-((methylamino)methyl)cyclohexanol]
IC50 [2]: 374 nM

CNC[C@@]1(c2ccc(Cl)c(F)c2)CCCC[C@H]1O (single isomer, unassigned) [141 E1, cis-2-(4-Chloro-3-fluorophenyl)-2-((methylamino)methyl)cyclohexanol]
IC50 [3]: 3690 nM

CNC[C@]1(c2ccc(Cl)c(F)c2)CCCC[C@H]1O (single isomer, unassigned) [142 E2, trans-2-(4-chloro-3-fluorophenyl)-2-((methylamino)methyl)cyclohexanol]
IC50 [3]: 2320 nM
